# Test results from PubChem BioAssay AID1066 (SRMLSC, 2008).
# The list shows a part of the results, in another mix than the full data. The source made the active and inactive calls.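 How the source made its calls: active means inhibition above a set limit, the median over all tested compounds plus 3 SD (cut at about 9.5% in these data); inconclusive means no clear call, values can overlap the other calls; inactive means the rest.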
# System: HMG-CoA reductase (Enterococcus faecalis, mvaE)
# Test: class II HMG-CoA reductase enzyme inhibition – biochemical, Enterococcus faecalis, primary screen (AID 1066);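 further: enzyme runs in reverse so mevalonate oxidation gives rising NADPH absorbance; 0% = complete reaction with DMSO and 100% = background rate lacking mevalonate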
# Details: purified E. faecalis HMGR, NADPH absorbance 340 nm kinetic; at 10 µM; hits give high values
row,SMILES,inhibition
1,Cc1cccc(C)c1OP(C)(=O)Nc1ccc(SC(F)(F)F)cc1 (centres undefined),inactive: 2.33%
2,CP(=O)(Oc1ccccc1)OC(c1ccccc1)C(F)(F)F (centres undefined),inactive: -3.08%
3,CP(=O)(NC(=O)Nc1ccccc1)Oc1ccccc1 (centres undefined),inactive: -6.4%
4,Cc1cc(C)cc(OP(C)(=O)Nc2ccc(SC(F)(F)F)cc2)c1 (centres undefined),inactive: 1.41%
5,CCOP(C)(=S)SCC(=O)NC(C)C(=O)O (centres undefined),inactive: -5.28%
6,CCOC(=O)c1ccc(NP(C)(=O)Oc2ccc(OC)cc2)cc1 (centres undefined),inactive: -8.7%
7,CP(=O)(Nc1ccccn1)Oc1ccc(Cl)cc1 (centres undefined),inactive: -3.81%
8,CP(=S)(Nn1cnnc1)Oc1ccccc1 (centres undefined),inactive: -3.36%
9,COc1ccccc1OP(C)(=O)Nc1ccccc1 (centres undefined),inactive: 0.41%
10,CP(=O)(Nc1ccccc1Br)Oc1ccccc1 (centres undefined),inactive: -4.96%
11,CC(C)(C)c1ccc(OP(C)(=O)Nc2ccc(SC(F)(F)F)cc2)cc1 (centres undefined),inactive: -6.28%
12,Cc1cccc(C)c1OP(C)(N)=O (centres undefined),inactive: -0.59%
13,O=[N+]([O-])c1ccc2c(c1)C=Nc1ccccc1O2,inactive: 2.86%
14,CCOC(=O)c1ccc(NP(C)(=O)Oc2ccccc2)cc1 (centres undefined),inactive: -1.17%
15,COc1ccccc1OP(C)(=O)Nc1ccc(C)cc1 (centres undefined),inactive: -4.68%
16,Cc1ccc(NP(C)(=O)Oc2ccccc2)c(C)c1 (centres undefined),inactive: 1.57%
17,COc1ccccc1OP(C)(=O)Nc1cc(Cl)ccc1C (centres undefined),inactive: 1.53%
18,COc1ccc(OP(C)(=O)Nc2cccc(F)c2)cc1 (centres undefined),inactive: -0.98%
19,Cc1cc(C)cc(OP(C)(N)=O)c1 (centres undefined),inactive: -5.45%
20,CCN(CC)CCCOC(=O)C(O)(c1ccccc1)c1ccccc1,inactive: -0.65%
21,Cc1cc(C)cc(OP(C)(=O)Nc2ccc(C)cc2C)c1 (centres undefined),inactive: -4.06%
22,CCOC(=O)c1ccc(NP(C)(=O)Oc2cc(C)cc(C)c2)cc1 (centres undefined),inactive: 0.44%
23,CP(=O)(Nc1cccc(Br)c1)Oc1ccccc1 (centres undefined),inactive: 1.14%
24,Cc1cc(C)cc(OP(C)(=O)Nc2ccccn2)c1 (centres undefined),inactive: 3.07%
25,Cc1ccc(C)c(NP(C)(=O)Oc2ccccc2)c1 (centres undefined),inactive: 2.74%
26,CC1=NCCc2c1[nH]c1ccccc21.O=[N+]([O-])c1cc([N+](=O)[O-])c(O)c([N+](=O)[O-])c1,inactive: -3.42%
27,COc1ccccc1OP(C)(=O)Nc1c(C)cccc1C (centres undefined),inactive: -8.15%
28,CN1CCCCC1COC(=O)C1(O)c2ccccc2CCc2ccccc21 (centres undefined),inactive: -5.45%
29,CP(=O)(Nc1ccc(SC(F)(F)F)cc1)Oc1ccccc1 (centres undefined),inactive: 0.7%
